What was measured:
[1] = molecular target: JAK1 (recombinant purified GST-tagged catalytic domain) (Homo sapiens (Human), UniProt P23458); test: biochemical;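 further: biochemical assay with HTRF read-out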
[2] = molecular target: JAK2 (recombinant purified GST-tagged catalytic domain) (Homo sapiens (Human), UniProt O60674); test: biochemical;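 further: biochemical JAK kinase assay with HTRF detection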

Amino acid sequences for entries named in this document (tags omitted). Residues count along the entry.
UniProt P23458, 875-1153: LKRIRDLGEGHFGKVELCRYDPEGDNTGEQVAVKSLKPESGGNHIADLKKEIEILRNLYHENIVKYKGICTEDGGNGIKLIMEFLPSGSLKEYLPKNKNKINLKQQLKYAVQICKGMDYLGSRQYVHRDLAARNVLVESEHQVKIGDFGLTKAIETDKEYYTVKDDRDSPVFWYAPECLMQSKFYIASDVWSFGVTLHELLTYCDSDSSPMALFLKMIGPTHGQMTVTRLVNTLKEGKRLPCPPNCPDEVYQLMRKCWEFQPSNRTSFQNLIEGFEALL
UniProt O60674, 849-1124: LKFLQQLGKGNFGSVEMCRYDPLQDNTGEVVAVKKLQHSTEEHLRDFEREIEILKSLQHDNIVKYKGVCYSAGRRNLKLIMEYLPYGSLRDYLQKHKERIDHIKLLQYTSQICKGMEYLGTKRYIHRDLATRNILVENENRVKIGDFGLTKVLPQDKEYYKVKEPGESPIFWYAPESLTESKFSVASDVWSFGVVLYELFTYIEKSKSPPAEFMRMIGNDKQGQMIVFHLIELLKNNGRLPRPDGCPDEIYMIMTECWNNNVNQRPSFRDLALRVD

SMILES	IC50 [1] [nM]	IC50 [2] [nM]
N#C[C@@H]1C[C@@H](N(CC2CC2)C2CCC2)CC[C@H]1n1cc(C(N)=O)c(Nc2ccc(C(F)(F)F)cc2)n1 (single isomer, unassigned) [Example 30-10, 1-{(1R,2R,4S or 1S,2R,4R)-2-cyano-4-[cyclobutyl(cyclo-propylmethyl)amino]cyclo-hexyl}-3-{[4-(trifluoromethyl)phenyl]amino}-1H-pyrazole-4-carboxamide]	10	610
C[C@]1(C#N)CC[C@H](O)C[C@@H]1n1cc(C(N)=O)c(Nc2ccc(F)cc2)n1 (racemic) [Example 18, 1-((1S,2S,5S and 1R,2R,5R)-2-Cyano-5-hydroxy-2-methylcyclohexyl)-3-((4-fluorophenyl)amino)-1H-pyrazole-4-carboxamide]	10	22
N#C[C@H]1CCCCC1n1cc(C(N)=O)c(Nc2ccc(F)cc2)n1 (single isomer, unassigned) [Example 43-4, 1-[(1R,2S or 1S,2R)-2-cyanocyclohexyl]-3-[(4-fluorophenyl)amino]-1H-pyrazole-4-carboxamide]	2	15
N#C[C@H]1C[C@H](N2CCC2)CC[C@@H]1n1cc(C(N)=O)c(Nc2ccnc(F)c2)n1 (single isomer, unassigned) [Example 28-101, 1-[(1S,2S,4R or 1R,2R,4S)-4-azetidin-1-yl-2-cyanocyclohexyl]-3-[(2-fluoropyridin-4-yl)amino]-1H-pyrazole-4-carboxamide]	4	69
C[C@@](O)(c1ccc(Nc2nn([C@H]3CC[C@@H](O)C[C@@H]3C#N)cc2C(N)=O)cc1)C(F)(F)F (single isomer, unassigned) [Example 25-17, 1-[(1S,2S,4R or 1R,2R,4S)-2-cyano-4-hydroxycyclohexyl]-3-({4-[(1R)-2,2,2-trifluoro-1-hydroxy-1-methylethyl]phenyl}amino)-1H-pyrazole-4-carboxamide]	0.35	2
C[C@@](O)(c1ccc(Nc2nn([C@H]3CC[C@H](N4CCC4)C[C@@H]3C#N)cc2C(N)=O)cc1)C(F)(F)F (single isomer, unassigned) [Example 28-49, 1-[(1S,2S,4S or 1R,2R,4R)-4-azetidin-1-yl-2-cyanocyclohexyl]-3-({4-[(1R or 1S)-2,2,2-trifluoro-1-hydroxy-1-methylethyl]phenyl}amino)-1H-pyrazole-4-carboxamide]	0.15	5
CC(C)(c1ccc(Nc2nn([C@H]3CCCC[C@@H]3C#N)cc2C(N)=O)cc1)[C@H](O)C(F)(F)F (single isomer, unassigned) [Example 17-29, 1-[(1S,2S or 1R,2R)-2-cyanocyclohexyl]-3-({4-[(2S or 2R)-3,3,3-trifluoro-2-hydroxy-1,1-dimethylpropyl]phenyl}amino)-1H-pyrazole-4-carboxamide]	0.36	3
CC1(C)CN([C@H]2CC[C@H](n3cc(C(N)=O)c(Nc4ccc([C@](C)(O)C(F)(F)F)cc4)n3)[C@@H](C#N)C2)C1 (single isomer, unassigned) [Example 28-89, 1-[(1S,2S,4S or 1R,2R,4R)-2-cyano-4-(3,3-dimethylazetidin-1-yl)cyclohexyl]-3-({4-[(1S or 1R)-2,2,2-trifluoro-1-hydroxy-1-methylethyl]phenyl}amino)-1H-pyrazole-4-carboxamide]	0.3	6
CC(C)(O)C1CN([C@H]2CCC(n3cc(C(N)=O)c(Nc4ccc(Cl)cc4)n3)[C@@H](C#N)C2)C1 (single isomer, unassigned) [Example 28-211, 3-[(4-chlorophenyl)amino]-1-{(1S,2S,4S or 1R,2R,4R)-2-cyano-4-[3-(1-hydroxy-1-methylethyl)azetidin-1-yl]cyclohexyl}-1H-pyrazole-4-carboxamide]	4	71
CC1(c2ccc(Nc3nn([C@H]4CC[C@@H](O)C[C@@H]4C#N)cc3C(N)=O)cc2)COC1 (single isomer, unassigned) [Example 25-20, 1-[(1S,2S,4R or 1R,2R,4S)-2-cyano-4-hydroxycyclohexyl]-3-{[4-(3-methyloxetan-3-yl)phenyl]amino}-1H-pyrazole-4-carboxamide]	1	4
CC(C)(c1ccc(Nc2nn([C@@H]3CCCC[C@H]3C#N)cc2C(N)=O)cc1)[C@@H](O)C(F)(F)F (single isomer, unassigned) [Example 17-30, 1-[(1R,2R or 1S,2S)-2-cyanocyclohexyl]-3-({4-[(2R or 2S)-3,3,3-trifluoro-2-hydroxy-1,1-dimethylpropyl]phenyl}amino)-1H-pyrazole-4-carboxamide]	0.1	1
N#C[C@H]1CCCCC1n1cc(C(N)=O)c(Nc2ccc(F)cc2)n1 (single isomer, unassigned) [Example 43-3, 1-[(1S,2R or 1R,2S)-2-cyanocyclohexyl]-3-[(4-fluorophenyl)amino]-1H-pyrazole-4-carboxamide]	16	150
CC1(C)CN([C@H]2CC[C@H](n3cc(C(N)=O)c(Nc4ccc([C@@](C)(O)C(F)(F)F)cc4)n3)[C@@H](C#N)C2)C1 (single isomer, unassigned) [Example 28-68, 1-[(1S,2S,4S or 1R,2R,4R)-2-cyano-4-(3,3-dimethylazetidin-1-yl)cyclohexyl]-3-({4-[(1R or 1S)-2,2,2-trifluoro-1-hydroxy-1-methylethyl]phenyl}amino)-1H-pyrazole-4-carboxamide]	0.06	1
N#C[C@H]1C[C@@H](N2CC3(CCC3)C2)CC[C@@H]1n1cc(C(N)=O)c(Nc2ccc([C@H](O)C(F)(F)F)cc2)n1 (single isomer, unassigned) [Example 28-88, 1-[(1S,2S,4S or 1R,2R,4R)-4-(2-azaspiro[3.3]hept-2-yl)-2-cyanocyclohexyl]-3-({4-[(1S or 1R)-2,2,2-trifluoro-1-hydroxyethyl]phenyl}amino)-1H-pyrazole-4-carboxamide]	0.1	7
CC1(C)CCN1[C@H]1CC[C@H](n2cc(C(N)=O)c(Nc3ccc(C(F)(F)F)cc3)n2)[C@@H](C#N)C1 (single isomer, unassigned) [Example 28-196, 1-[(1S,2S,4S or 1R,2R,4R)-2-cyano-4-(2,2-dimethylazetidin-1-yl)cyclohexyl]-3-{[4-(trifluoromethyl)phenyl]amino}-1H-pyrazole-4-carboxamide]	1	34
CC(C)(N[C@@H]1CCC(n2cc(C(N)=O)c(Nc3ccc(Cl)cc3)n2)[C@@H](C#N)C1)C1CC1 (single isomer, unassigned) [Example 28-209, 3-[(4-chlorophenyl)amino]-1-{(1S,2S,4R or 1R,2R,4S)-2-cyano-4-[(1-cyclopropyl-1-methylethyl)amino]cyclohexyl}-1H-pyrazole-4-carboxamide]	3	208
N#C[C@H]1C[C@@H](NCC(F)(F)F)CCC1n1cc(C(N)=O)c(Nc2ccc(S(=O)(=O)C(F)F)cc2)n1 (mixture of isomers) [Example 27-12, 1-{(1S,2S,4S and 1R,2R,4R)-2-cyano-4-[(2,2,2-trifluoroethyl)amino]cyclohexyl}-3-({4-[(difluoromethyl)sulfonyl]phenyl}amino)-1H-pyrazole-4-carboxamide]	0.3	10
N#C[C@H]1CCCCC1n1cc(C(N)=O)c(Nc2ccc3c(c2)C(O)CS3(=O)=O)n1 (mixture of isomers) [Example 17-62, 1-[(1S,2S and 1R,2R)-2-cyanocyclohexyl]-3-[(3-hydroxy-1,1-dioxido-2,3-dihydro-1-benzothiophen-5-yl)amino]-1H-pyrazole-4-carboxamide]	0.28	2
N#C[C@@H]1C[C@H](C(=O)N2CC3(CCC3)C2)CC[C@H]1n1cc(C(N)=O)c(Nc2ccc(Cl)cc2)n1 (single isomer, unassigned) [Example 35-4, 1-[(1R,2R,4R or 1S,2S,4S)-4-(2-azaspiro[3.3]hept-2-ylcarbonyl)-2-cyanocyclohexyl]-3-[(4-chlorophenyl)amino]-1H-pyrazole-4-carboxamide]	16	133
N#C[C@H]1C[C@H](O)CC[C@@H]1n1cc(C(N)=O)c(Nc2ccc(OC(F)F)cc2)n1 (single isomer, unassigned) [Example 25-26, 1-[(1S,2S,4R or 1R,2R,4S)-2-cyano-4-hydroxycyclohexyl]-3-{[4-(difluoromethoxy)phenyl]amino}-1H-pyrazole-4-carboxamide]	0.6	8
N#C[C@H]1CCCC[C@@H]1n1cc(C(N)=O)c(Nc2ccnc(F)c2)n1 (racemic) [Example 17-1, 1-[(1S,2S and 1R,2R)-2-cyanocyclohexyl]-3-[(2-fluoropyridin-4-yl)amino]-1H-pyrazole-4-carboxamide]	2	21
CC1(C)CCN1[C@@H]1CC[C@H](n2cc(C(N)=O)c(Nc3ccc(C(F)(F)F)cc3)n2)[C@@H](C#N)C1 (single isomer, unassigned) [Example 28-197, 1-[(1S,2S,4R or 1R,2R,4S)-2-cyano-4-(2,2-dimethylazetidin-1-yl)cyclohexyl]-3-{[4-(trifluoromethyl)phenyl]amino}-1H-pyrazole-4-carboxamide]	7	430
CC(C)(c1ccc(Nc2nn([C@H]3CCCC[C@@H]3C#N)cc2C(N)=O)cc1)[C@@H](O)C(F)(F)F (single isomer, unassigned) [Example 17-31, 1-[(1S,2S or 1R,2R)-2-cyanocyclohexyl]-3-({4-[(2R or 2S)-3,3,3-trifluoro-2-hydroxy-1,1-dimethylpropyl]phenyl}amino)-1H-pyrazole-4-carboxamide]	0.6	10
N#C[C@H]1C(n2cc(C(N)=O)c(Nc3ccccc3)n2)CCC[C@@H]1O (mixture of isomers) [Example 2-10, 1-[(1S,2R,3S and 1R,2S,3R)-2-cyano-3-hydroxycyclohexyl]-3-(phenylamino)-1H-pyrazole-4-carboxamide]	13	100

— patent US8962608B2, “Cycloalkylnitrile pyrazole carboxamides as janus kinase inhibitors” (Merck Sharp & Dohme Corp., priority 2011, dated 2015)
